Measured values taken from ChEMBL document CHEMBL3612012, “Identification of orally-bioavailable antagonists of the TRPV4 ion-channel” (Bioorg Med Chem Lett, 2015).

Tested on: Vasoactive intestinal polypeptide receptor 1
Experiment: Binding affinity to human VIP1 receptor assessed as inhibition of control specific binding at 10 uM

- inhibition: 2%
SMILES: CC(C)N1CCN(S(=O)(=O)c2ccc(NC(=O)c3ccc(C(F)(F)F)cc3[N+](=O)[O-])cc2)CC1
